Measured values: US20050143628A1, “Methods for characterizing tissue or organ condition or status” (priority 2003, published 2005)

Legend:
rat liver [1] = details: in vivo, 0.01 mg/kg/day
rat liver [2] = details: in vivo, 0.01 mg/kg/day; remark: listed apart in the source

## TNF-alpha
Rat liver [1]
  Histopathology examination of liver: no observable liver abnormality
Rat liver [2]
  Liver damage call by hepatotoxicity score versus individual clinical chemistry measures: false negatives
